Columns and labels:
[1] = target: Recombinant ROCK2 (amino acids 5-554) (Homo sapiens, UniProt O75116); assay: ROCK inhibition assay, LANCE Ultra TR-FRET (ROCK2); settings: read-out: Inhibition Activity of ROCK2 (IC50); 1 mM of ATP
Experimental: (§1) Kinase IC50 was determined through an in vitro assay based on LANCE Ultra TR-FRET (Time-Resolved Fluorescence Resonance Energy Transfer) homogeneous technologies method 5 (Perkin Elmer). Recombinant ROCK1 (amino acids 1-477) and ROCK2 (amino acids 5-554) proteins were purchased from Carna Biosciences and SignalChem. Compound activities were measured by Envision and IC50s were calculated. The assays were performed in white LUMITRAC™ 200 96 well half-area microplates from Greiner Bio-One. The kinase reaction buffer consisted of 50 mM HEPES pH 7.5, 1 mM EGTA, 10 mM MgCl2, 2 mM DTT and 0.01% 10 Tween-20. Kinases were incubated with 50 nM (ULight-CREBtide) substrate in the presence of 1 mM (ROCK1) or 1 mM (ROCK2) of ATP. The kinase reaction was carried out for 1 hour before addition of a stopping buffer to a final of 10 mM EDTA and 0.6 nM of LANCE Ultra Europium anti-phospho-CREB (Ser133) antibody (PerkinElmer TRF0200) in LANCE detection buffer. All assay incubations were performed at room temperature, and the microplates were sealed with polyester film during that time. The reaction was incubated for 1 hour, and the signal was read in Envision in TR-FRET mode (excitation at 320 nm and emission at 615/665 nm).
(§2) As used herein, a way to describe potency of inhibitory activity (nM) is a value of inhibitory activity at 50% (IC50). […]

Protein sequences, listed by entry. Tags and fused reporters are not part of them. Residues count along the entry.
UniProt O75116, 5-554 limits assumed: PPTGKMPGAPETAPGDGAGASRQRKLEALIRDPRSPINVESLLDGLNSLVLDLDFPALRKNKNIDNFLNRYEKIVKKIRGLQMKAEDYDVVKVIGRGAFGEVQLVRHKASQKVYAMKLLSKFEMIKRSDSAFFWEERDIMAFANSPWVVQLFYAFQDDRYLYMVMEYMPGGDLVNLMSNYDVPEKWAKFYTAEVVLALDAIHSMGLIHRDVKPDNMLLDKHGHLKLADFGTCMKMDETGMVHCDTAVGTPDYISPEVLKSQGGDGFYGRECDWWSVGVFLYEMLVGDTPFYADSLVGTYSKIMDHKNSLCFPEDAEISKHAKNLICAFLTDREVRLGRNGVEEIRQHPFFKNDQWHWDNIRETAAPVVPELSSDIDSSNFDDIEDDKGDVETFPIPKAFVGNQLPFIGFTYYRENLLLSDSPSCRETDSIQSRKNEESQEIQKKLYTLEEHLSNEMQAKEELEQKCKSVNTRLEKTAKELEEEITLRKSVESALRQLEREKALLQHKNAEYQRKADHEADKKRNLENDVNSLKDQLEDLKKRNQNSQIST
UniProt Q13464, 1-477 limits assumed: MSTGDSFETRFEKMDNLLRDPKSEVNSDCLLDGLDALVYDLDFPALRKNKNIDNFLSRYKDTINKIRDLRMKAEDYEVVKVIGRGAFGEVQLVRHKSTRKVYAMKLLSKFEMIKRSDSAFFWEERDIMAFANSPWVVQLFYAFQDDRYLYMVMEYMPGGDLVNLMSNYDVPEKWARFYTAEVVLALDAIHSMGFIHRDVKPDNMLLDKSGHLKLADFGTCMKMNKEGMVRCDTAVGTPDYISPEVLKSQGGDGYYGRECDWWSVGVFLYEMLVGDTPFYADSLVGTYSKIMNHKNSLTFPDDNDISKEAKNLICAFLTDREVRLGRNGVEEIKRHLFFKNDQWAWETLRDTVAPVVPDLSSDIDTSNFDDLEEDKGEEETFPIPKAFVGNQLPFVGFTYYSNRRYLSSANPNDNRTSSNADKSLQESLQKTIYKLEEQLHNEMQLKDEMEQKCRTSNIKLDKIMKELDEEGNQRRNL

[2] = target: Recombinant ROCK1 (amino acids 1-477) (Homo sapiens, UniProt Q13464); assay: ROCK inhibition assay, LANCE Ultra TR-FRET (ROCK1); settings: read-out: Inhibition Activity of ROCK1 (IC50); 1 mM of ATP
Experimental: as §1, §2

SMILES: CC[C@@H](N)Cn1cc(C(=O)C2COc3ccc(Cl)cc3C2)c2ccc(-c3cn[nH]c3OC)cc21 (some centres unmarked)
- IC50 [1]: < 0.02 µM
- IC50 [2]: 0.021 to 0.2 µM

From patent US20240360139A1, “BLOOD BRAIN BARRIER PENETRATING SELECTIVE INHIBITORS OF ROCK2 PROTEIN KINASES AND USES THEREOF” (GENOSCO Inc., priority 2023, published 2024)
